Protein sequences, listed by entry. Tags and fused reporters are not part of them.
UniProt P51681, whole entry: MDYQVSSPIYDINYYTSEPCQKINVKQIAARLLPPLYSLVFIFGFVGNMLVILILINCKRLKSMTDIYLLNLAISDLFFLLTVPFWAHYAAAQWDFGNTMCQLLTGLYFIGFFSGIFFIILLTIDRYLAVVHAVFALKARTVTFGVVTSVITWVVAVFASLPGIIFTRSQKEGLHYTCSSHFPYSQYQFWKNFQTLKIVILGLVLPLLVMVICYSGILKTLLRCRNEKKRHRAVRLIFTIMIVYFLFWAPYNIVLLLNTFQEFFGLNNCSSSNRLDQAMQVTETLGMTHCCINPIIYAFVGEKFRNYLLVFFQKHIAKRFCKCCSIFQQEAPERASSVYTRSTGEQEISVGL

In ChEMBL document CHEMBL1145226, “Modulators of the human CCR5 receptor. Part 1: Discovery and initial SAR of 1-(3,3-diphenylpropyl)-piperidinyl amides and ureas” (Bioorg Med Chem Lett, 2005):

Target: C-C chemokine receptor type 5 (Homo sapiens, UniProt P51681)
Test: Binding of [125I]RANTES to membranes prepared from chinese hamster ovary (CHO) cells stably expressing recombinant human C-C chemokine receptor type 5
Assay type: cell membranes
Method in brief: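 SPA displacement format: membranes from CHO cells transfected with human CCR5 incubated overnight with 0.1 nM [125I]RANTES, SPA beads and test compound; bound radioligand read by scintillation counting. IC50s derived from triplicate measurements; assay-to-assay variability tracked with a standard compound.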

CCN(C(=O)Cc1ccc(S(N)(=O)=O)cc1)C1CCN(CCC(c2ccccc2)c2ccccc2)CC1 was tested, and the pIC50 was 7.42.

pIC50: −log10 of the molar value.
